This is a selection; strong and weak results do not stand in their true shares. Some results for these compounds are left out of this collection, so the calls shown say nothing about other tests. Calls of active or inactive are those of the source.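 The calls were made as follows: active = inhibition above the mean of all tested compounds plus 3 SD (cut at about 40% in these data); inactive = the rest.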

Experimental findings from PubChem BioAssay AID465 (The Scripps Research Institute Molecular Screening Center, 2006) are described below.

The nature of the experiment: inhibitors of PMA/ionomycin-induced NF-kB reporter, primary screen, antigen receptor NF-kB inhibitor project, cell-based, HEK-293 luciferase reporter, luminescence (AID 465).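 Also: 0% = stimulated DMSO wells and 100% = 10 µM reference inhibitor 5653914.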 To be noted: HEK-293 NF-kB luciferase reporter, at 3 µM, hits give high values. In short, it runs like this:
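System – HEK-293 cells with stable firefly luciferase reporter driven by four HIV NF-kB elements · Doses – one dose, 3 µM · Schedule – 1 h compound pre-incubation, 16 h PMA/ionomycin at 37 °C · Technique – luminescence from luciferase substrate reagent · Measure – percent inhibition normalized per plate to DMSO and reference-inhibitor controls · Replicates – tested once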
A word on the inhibition: it is how much of the control response was suppressed. Regarding `O=C(OC1CN2CCC1CC2)C(CO)(c1ccccc1)c1ccccc1` (configuration not stated), the inhibition is inactive: 18.7%.
Under `CN(C)c1cccc(C(=O)NCC2(N(C)C)CCCCC2)c1` stands inactive: 7%.
